Laboratory results taken from ChEMBL document CHEMBL1649565, “Besifloxacin, a novel fluoroquinolone, has broad-spectrum in vitro activity against aerobic and anaerobic bacteria” (Antimicrob Agents Chemother, 2009).

Test system: Streptococcus sp.
Test: Antibacterial activity against Lancefield Streptococcus sp. group F assessed as percent susceptible isolates by CLSI M100-S18 method
Format: functional

`CC[C@H]1OC(=O)[C@H](C)[C@@H](O[C@H]2C[C@@](C)(OC)[C@@H](O)[C@H](C)O2)[C@H](C)[C@@H](O[C@@H]2O[C@H](C)C[C@H](N(C)C)[C@H]2O)[C@](C)(O)C[C@@H](C)CN(C)[C@H](C)[C@@H](O)[C@]1(C)O` [AZITHROMYCIN] was tested, and the Activity was 98%.
